## CycPeptMPDB entries from one study

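Conditions beyond the assay type are not listed; see the original paper. The list need not hold all peptides of the study. Peptides that the database sets to -10, its floor, are left out.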

PAMPA measures passive passage through an artificial lipid membrane. Permeability is given as log10 of P in cm/s; higher (less negative) is more permeable.

| compound | PAMPA (log10 cm/s) |
|---|---|
| CC(C)C[C@@H]1NC(=O)[C@H]2CCCN2C(=O)CN(Cc2ccccc2)C(=O)[C@H](CC(C)C)NC(=O)[C@@H](C)NC(=O)[C@H]2CCCN2C(=O)[C@H](Cc2ccccc2)NC1=O | -6.14 |
| CC(C)C[C@H]1C(=O)N[C@@H](Cc2ccccc2)CC(=O)N2CCC[C@@H]2C(=O)N(C)[C@@H](CC(C)C)C(=O)N[C@@H](Cc2ccccc2)C(=O)N2CCC[C@H]2C(=O)N[C@@H](Cc2ccccc2)CC(=O)N1C | -5.56 |
| CC(C)C[C@@H]1NC(=O)[C@@H]2CCCN2C(=O)[C@@H](CC(C)C)NC(=O)CN(Cc2ccccc2)C(=O)C[C@H](Cc2ccccc2)NC(=O)[C@H]2CCCN2C(=O)[C@H](Cc2ccccc2)NC1=O | -5.93 |
| CCCN1CC(=O)N(C)[C@H](CC(C)C)C(=O)N(C)[C@@H](CC(C)C)C(=O)N2CCC[C@@H]2C(=O)N(C)[C@H](CC(C)C)C(=O)N[C@@H](Cc2ccccc2)C(=O)N2CCC[C@@H]2C1=O | -4.91 |
| CC(C)C[C@@H]1NC(=O)[C@H](C)N(C)C(=O)[C@@H]2CCCN2C(=O)[C@H](Cc2ccccc2)NC(=O)CN(Cc2ccccc2)C(=O)[C@@H]2CCCN2C(=O)[C@H](CC(C)C)NC1=O | -6.17 |
| CC(C)C[C@@H]1NC(=O)[C@@H]2CCCN2C(=O)[C@H](CC(C)C)N(C)C(=O)[C@@H](CC(C)C)NC(=O)[C@H](C)N(C)C(=O)[C@H](Cc2ccccc2)NC1=O | -5.78 |
| CC(C)C[C@@H]1NC(=O)[C@H](C)NC(=O)[C@H](Cc2ccccc2)NC(=O)[C@@H](CC(C)C)N(C)C(=O)[C@@H]2CCCN2C(=O)[C@@H](CC(C)C)NC1=O | -6.00 |
| CC(C)C[C@@H]1C(=O)N[C@@H](Cc2ccccc2)C(=O)N2CCC[C@H]2C(=O)N(C)[C@@H](C)C(=O)N(C)[C@@H](CC(C)C)C(=O)N[C@H](CC(C)C)C(=O)N2CCC[C@H]2C(=O)N1C | -6.00 |
| CC(C)C[C@H]1NC(=O)[C@@H](C)NC(=O)[C@H](Cc2ccccc2)NC(=O)[C@H](CC(C)C)N(C)C(=O)[C@H]2CCCN2C(=O)[C@H](CC(C)C)N(C)C1=O | -5.50 |
| CC(C)C[C@@H]1NC(=O)[C@@H]2CCCN2C(=O)[C@@H](CC(C)C)N(C)C(=O)[C@H](CC(C)C)NC(=O)C[C@H](Cc2ccccc2)NC(=O)[C@H](Cc2ccccc2)NC1=O | -5.16 |
| CC(C)C[C@@H]1NC(=O)[C@@H](CC(C)C)NC(=O)C[C@H](Cc2ccccc2)NC(=O)[C@H](Cc2ccccc2)NC(=O)[C@@H](CC(C)C)N(C)C(=O)[C@@H]2CCCN2C1=O | -5.65 |
| CC(C)C[C@H]1C(=O)N[C@@H](Cc2ccccc2)C(=O)N2CCC[C@@H]2C(=O)N(C)[C@H](C)C(=O)N(Cc2ccccc2)CC(=O)N[C@@H](Cc2ccccc2)CC(=O)N2CCC[C@@H]2C(=O)N1C | -6.40 |
| CCCN1CC(=O)N(C)[C@H](CC(C)C)C(=O)N[C@H](CC(C)C)C(=O)N2CCC[C@@H]2C(=O)N[C@@H](CC(C)C)C(=O)N[C@@H](Cc2ccccc2)C1=O | -5.30 |
| CC(C)C[C@H]1NC(=O)[C@@H]2CCCN2C(=O)[C@@H](CC(C)C)NC(=O)[C@H](CC(C)C)N(C)C(=O)[C@H](C)N(C)C(=O)[C@@H]2CCCN2C(=O)[C@H](Cc2ccccc2)NC1=O | -7.13 |
| CC(C)C[C@@H]1NC(=O)[C@@H](CC(C)C)NC(=O)[C@@H](C)N(C)C(=O)[C@H](Cc2ccccc2)NC(=O)[C@@H](CC(C)C)NC(=O)[C@@H]2CCCN2C1=O | -5.49 |
| CC(C)C[C@@H]1C(=O)N[C@@H](Cc2ccccc2)C(=O)N2CCC[C@H]2C(=O)N[C@@H](C)C(=O)N[C@H](CC(C)C)C(=O)N(C)[C@@H](CC(C)C)C(=O)N2CCC[C@@H]2C(=O)N1C | -5.69 |
| CC(C)C[C@H]1NC(=O)[C@H](C)N(C)C(=O)[C@@H]2CCCN2C(=O)[C@H](Cc2ccccc2)NC(=O)[C@H](CC(C)C)N(C)C(=O)[C@@H]2CCCN2C(=O)[C@H](CC(C)C)N(C)C1=O | -5.59 |
| CC(C)C[C@@H]1NC(=O)[C@H](C)NC(=O)[C@H](Cc2ccccc2)NC(=O)[C@@H](CC(C)C)NC(=O)[C@H]2CCCN2C(=O)CN(Cc2ccccc2)C1=O | -6.69 |

The last 2 entries again:

| compound | PAMPA (log10 cm/s) |
|---|---|
| CC(C)C[C@H]1NC(=O)[C@H](C)N(C)C(=O)[C@@H]2CCCN2C(=O)[C@H](Cc2ccccc2)NC(=O)[C@H](CC(C)C)N(C)C(=O)[C@@H]2CCCN2C(=O)[C@H](CC(C)C)N(C)C1=O | -5.59 |
| CC(C)C[C@@H]1NC(=O)[C@H](C)NC(=O)[C@H](Cc2ccccc2)NC(=O)[C@@H](CC(C)C)NC(=O)[C@H]2CCCN2C(=O)CN(Cc2ccccc2)C1=O | -6.69 |

Collected by the curators of CycPeptMPDB (Li et al. 2023) from Townsend et al. 2020, doi:10.26434/chemrxiv.13335941.v1.